Legend:
UV4 [1] = assay: Concentration of the drug to give 10% cell survival under aerobic conditions using UV4 cells suspension; settings: Cricetulus griseus
[2] = Ratio of concentration of cell survival in aerobic conditions to that of hypoxic conditions after 1-hour exposure
UV4 [3] = assay: Hypersensitivity factor which is a ratio of IC50 of AA8 cells to that of the UV4 cells

SMILES | C10 (UV4 [1]) [mM] | Ratio [2] | Ratio (UV4 [3])
C[N+](CCCl)(CCCl)Cc1ccccc1[N+](=O)[O-] | 8 | 200 | 300
C[N+](CCCl)(CCCl)Cc1ccc([N+](=O)[O-])cc1 | 6 | 9 | 2900
C[N+](CCCl)(CCCl)Cc1cccc([N+](=O)[O-])c1 | > 50 |  | 
